The results in this text go back to paper PMC9012344 (Drug Design, Development and Therapy, 2022).

Each structure is given as a SMILES string.

What all share (format): cell-based, Human
Holding throughout (details): at 5 μM

For test [1], the system named is H460 cells. The experiment in a line: FITC Annexin V/PI staining assay for cell apoptosis, H460.
For test [2], the system named is HCT116 cells. The experiment in a line: FITC Annexin V/PI staining assay for cell apoptosis, HCT116.
Test [3] relates to MDA-MB-468 cells. The experiment in a line: FITC Annexin V/PI staining assay for cell apoptosis, MDA-MB-468.

As to `O=C(CCCCCCC(=O)Nc1ccccc1)NO` [Vorinostat], in test [1], the “apoptosis of H460 cells” value is on record as “about 20%”. Moreover, in test [2], the “proportion of apoptosis, HCT116” value is 64.72%. The “proportion of apoptosis, MDA-MB-468” value in test [3] came out at 49.19%.
